Assay outcomes (PubChem)
TDP1 cell noCPT – qHTS for Inhibitors of human tyrosyl-DNA phosphodiesterase 1 (TDP1): qHTS in cells in absence of CPT. DT40 Tdp1-/- hTDP1 cells, no CPT, ATP luminescence, 48 h. Potency, µM (titrated, usually from 46.2 µM), for inactives: top-dose activity change, negative = growth inhibition, actives largely listed as inhibitors. 420,000 tested, 15% active. AID 686978, 2013; further: potency means the concentration at half of the fitted maximal effect; on the % scale 0 is the no-effect control and ±100 the full control effect; nearly all actives have a fitted effect of over 55% in size
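Cells were dispensed at 400 per well, compounds added by pin tool, plates incubated ≥48 hr at 37 °C, then CellTiter-Glo added for 30 min at room temperature before luminescence reading. Line: DT40 Tdp1-/- complemented with hTDP1; camptothecin omitted.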
TDP1 inh – inhibitors of human tyrosyl-DNA phosphodiesterase TDP1. Potency, µM (highest dose often 130 µM), inactives show at the top dose activity change, negative = inhibition, most hits filed as inhibitors. Q9NUW8. recombinant TDP1, AlphaScreen DNA substrate cleavage. 350,000 tested, 0.28% active; further: potency means the concentration at half of the fitted maximal effect; on the % scale 0 is the no-effect control and ±100 the full control effect; nearly all actives have a fitted effect of over 40% in size
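Compounds were preincubated with Tdp1 (1 nM final) for 15 min at room temperature before substrate (15 nM final) started a 5 min reaction; beads (10 ug/ml final) were then added for 10 min before AlphaScreen detection.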
TDP1 cell CPT – growth inhibition of DT40 Tdp1-/-;hTDP1 cells with camptothecin (screen for TDP1 inhibitors). 420,000 tested, 12% active. chicken DT40 Tdp1-/-;hTDP1 cells + 20 nM CPT, ATP luminescence, 48 h. Potency, µM (series often up to 46.2 µM), for the others: at the top dose activity change, negative = growth inhibition, usual class: inhibitors; further: potency means the concentration at half of the fitted maximal effect; on the % scale 0 is the no-effect control and ±100 the full control effect; nearly all actives have a fitted effect of over 55% in size
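Cell growth measured by CellTiter-Glo luminescence after a minimum 48 h, 37 C compound exposure with 20 nM CPT in Tdp1-knockout DT40 cells stably expressing hTDP1, seeded 400/well; qHTS titration format.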
miR-21 FLuc – miR-21 reporter, rising signal; HeLa miR-21 FLuc reporter, luciferase, 48 h; Potency, µM (highest dose often 38.3 µM), for the others: top-dose reporter change, positive = more light; 340,000 tested, under 10 active; AID 2288; active = well fitted rising curve with a large enough effect; inconclusive = small, poorly fitted or top-dose-only effect; inactive = no such curve, though single readings can be large or run the other way;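 further: % of control where 0% means no effect; miR-21 action dims this reporter so a rising signal means less miR-21 action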
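Luminescence from a firefly luciferase reporter carrying a miR-21 binding site downstream, stably expressed under a CMV promoter in HeLa cells that make miR-21 endogenously, reports miRNA modulation after 48 h compound exposure up to approximately 40uM final.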
uPA generation – cell surface uPA generation inhibition; cell surface uPA generation assay, qHTS; Potency, µM (top dose mostly 38.3 µM), inactives show at the highest dose activity change, negative = inhibition, usual class: inhibitors; 330,000 tested, 0.31% active; AID 540303; active means well fitted inhibition curve with a large enough effect; inconclusive means small, poorly fitted or top-dose-only effect; inactive means no such curve, though single readings can be large or run the other way; tested in mouse RAW 264.7 cells; further: potency means the concentration at half of the fitted maximal effect; on the % scale 0 is the no-effect control and ±100 the full control effect; nearly all actives have a fitted effect of over 55% in size
The depositor's hits bear a star; u = inconclusive; x = not tested or not shown; [ ] = remark or other dose. The list is not random: actives were taken first. Their share in the collection is about 16%. Unless noted, the call rests on the fitted dose curve; in most records, active means well fitted curve in the direction sought with a large enough effect; inconclusive means small, poorly fitted or top-dose-only effect, or another doubt; inactive means no such curve, though single readings can be large; an effect the other way counts as inactive or inconclusive.

1: O=C(CSc1nc2ccccc2s1)CSc1nc2ccccc2s1
2: CCn1c(CCNC(=O)c2ccc(OC)cc2)nnc1SCc1ccc(Cl)cc1Cl
3: Cc1ccccc1Cn1c(SCc2ccc(C(=O)NC3CCCCC3)cc2)nc2ccncc21
4: Cc1ccccc1Cn1c(SCc2ccc(C(=O)NC3CCCC3)cc2)nc2ccncc21
5: CCn1c(CCNC(=O)c2ccc(C)cc2)nnc1SCc1ccc(Cl)c(Cl)c1
6: Cc1ccccc1Cn1c(SCc2ccc(C(=O)NCCc3ccccc3)cc2)nc2ccncc21
7: CCCCNC(=O)Cn1c(SCc2ccccc2C)nc2ccncc21
8: CC(CNC(=O)c1ccc(CSc2nc3ccncc3n2Cc2ccccc2)cc1)c1ccccc1 (stereo not given)
Screen / compound no.	1	2	3	4	5	6	7	8
TDP1 cell CPT	4%	u	23µM*	u	21µM*	21µM*	-11%	u
TDP1 cell noCPT	-5%	u	u	u	23µM*	21µM*	u	u
miR-21 FLuc	-2%	-1%	-1%	2%	-4%	-4%	x	23%
TDP1 inh	-5%	0%	4%	1%	3%	5%	1%	5%
uPA generation	9%	1%	x	x	-1%	x	x	x

9: O=C(NCCc1ccccc1)c1ccc(CSc2nc3ccncc3n2Cc2ccccc2)cc1
10: CCCC(=O)Nc1nnc(S(=O)(=O)N2CCCC2)s1
11: CCc1ccc(N(CC(=O)NCc2ccc(OC)cc2)C(=O)CCC(=O)Nc2ccccn2)cc1
12: O=C(COC(=O)CCS(=O)(=O)c1ccccc1)Nc1cc(S(=O)(=O)N2CCCCC2)ccc1Cl
13: Cc1ccc(Cn2c(SCc3ccc(C(=O)NCCc4ccccc4)cc3)nc3ccncc32)cc1
14: C(=C1c2ccccc2-c2ccccc21)c1ccccn1
15: O=C1C(=Cc2ccccn2)CCc2ccccc21
16: C(=N\N=C\c1ccccn1)/c1ccccn1
Screen / compound no.	9	10	11	12	13	14	15	16
TDP1 cell CPT	4.6µM*	-12%	-3%	-11%	15µM*	u	15µM*	17%
TDP1 cell noCPT	u	-19%	u	-23%	12µM*	13µM*	4.1µM*	-5%
miR-21 FLuc	-19%	1%	3%	x	10%	x	x	-3%
TDP1 inh	3%	x	2%	x	5%	x	x	x
uPA generation	x	0%	-12%	-6%	x	-6%	x	0%

An excerpt taken from the entries so far:
12: O=C(COC(=O)CCS(=O)(=O)c1ccccc1)Nc1cc(S(=O)(=O)N2CCCCC2)ccc1Cl
13: Cc1ccc(Cn2c(SCc3ccc(C(=O)NCCc4ccccc4)cc3)nc3ccncc32)cc1
14: C(=C1c2ccccc2-c2ccccc21)c1ccccn1
15: O=C1C(=Cc2ccccn2)CCc2ccccc21
Screen / compound no.	12	13	14	15
TDP1 cell CPT	-11%	15µM*	u	15µM*
TDP1 cell noCPT	-23%	12µM*	13µM*	4.1µM*
miR-21 FLuc	x	10%	x	x
TDP1 inh	x	5%	x	x
uPA generation	-6%	x	-6%	x

Going on with the list.
17: O=C(O)CCN=Cc1c(O)c2ccccc2oc1=O
18: Cc1cccc(-c2n[nH]c(=S)n2/N=C/C=C/c2ccco2)c1
19: COC(=O)c1cccc(Nc2ccc([N+](=O)[O-])cn2)c1
20: COc1ccc(CNC(=O)C(c2ccco2)N(C(=O)c2ccccn2)c2ccccc2)cc1 (stereo not given)
21: N#CCC(=O)Nc1ccc(C(=O)OCC(=O)N2CCN(C(=O)c3ccco3)CC2)cc1
22: O=C(OCC(=O)N1CCN(C(=O)c2ccco2)CC1)c1ccccc1NCCO
23: Cc1ccc(C2(c3ccc(C)cc3)NC(=O)N(CC(N)=O)C2=O)cc1
24: O=C(NC1CCCc2c1cnn2-c1ccccc1F)c1ccccn1 (stereo not given)
Screen / compound no.	17	18	19	20	21	22	23	24
TDP1 cell CPT	8%	-14%	-4%	10µM*	6%	-10%	-4%	u
TDP1 cell noCPT	-22%	-6%	-11%	23µM*	2%	2%	8%	u
miR-21 FLuc	13%	-9%	-15%	-42%	x	x	-7%	25%
TDP1 inh	2%	7%	2%	0%	45µM*	45µM*	x	6%
uPA generation	7%	11%	x	14%	4%	0%	3%	u

25: O=C(NC1CCCc2c1cnn2-c1ccccc1F)c1ccncc1 (stereo not given)
26: COc1ccc(C(=O)NC2CCCc3c2cnn3-c2ccccc2F)cc1OC (stereo not given)
27: COc1ccc(OC)c(C(C[N+](=O)[O-])c2c(C)cc3ccccn23)c1 (stereo not given)
28: COCOc1ccc(C2CC(=O)c3c(OCOC)cc(OCOC)cc3O2)cc1 (stereo not given)
29: CCOC(=O)C1CCCN(C(=O)c2ccc3c(c2)sc2nc(-c4cccc(OC)c4)cn23)C1 (stereo not given)
30: CCOC(=O)C1CCCN(C(=O)COc2ccc(C(=O)c3ccc(F)cc3)cc2)C1 (stereo not given)
31: CCOC(=O)C1CCCN(C(=O)c2ccc3c(c2)sc2nc(-c4ccc(C)cc4C)cn23)C1 (stereo not given)
32: CCOC(=O)C1CCCN(C(=O)c2sc3nc(-c4ccccc4)cn3c2C)C1 (stereo not given)
Screen / compound no.	25	26	27	28	29	30	31	32
TDP1 cell CPT	10µM*	5.2µM*	2.1µM*	-18%	18µM*	18µM*	16µM*	u
TDP1 cell noCPT	5.8µM*	1.6µM*	2.9µM*	u	15µM*	u	18µM*	u
miR-21 FLuc	x	22%	13%	x	-8%	x	-7%	-2%
TDP1 inh	x	2%	1%[0.0935 µM]	x	4%	-2%	-3%	2%
uPA generation	x	-18%	-10%	-15%	x	-2%	x	-2%

33: CCOC(=O)C1CCCN(C(=O)c2sc3nc(-c4ccc(F)cc4)cn3c2C)C1 (stereo not given)
34: CN(C)CCC1(c2ccccc2)CCN(C)C1=O (stereo not given)
35: O=C(CCC(=O)c1ccc(F)cc1)NCc1ccccc1C(F)(F)F
36: COc1ccccc1NC(=O)C(=O)NCC(c1ccc2c(c1)OCO2)N1CCOCC1 (stereo not given)
37: Cc1cnc(C)c(Nc2nc(C(N)CCc3ccccc3)cs2)n1 (stereo not given)
38: Cc1csc(NC(=O)Cc2ccc(F)cc2)n1
39: Cc1cnc(C)c(Nc2nc(C(N)Cc3ccc(F)cc3)cs2)n1 (stereo not given)
40: Cc1nc(N)ncc1Sc1ccc(Cl)cc1
Screen / compound no.	33	34	35	36	37	38	39	40
TDP1 cell CPT	u	-12%	2%	u	16µM*	9%	26µM*	8%
TDP1 cell noCPT	26µM*	0%	5%	u	18µM*	-6%	u	u
miR-21 FLuc	-1%	x	-3%	-5%	x	-48%	x	-3%
TDP1 inh	-4%	x	3%	1%	x	x	x	1%
uPA generation	-2%	x	0%	x	x	3%	x	-1%

41: Cc1cnc(C(=O)OCC(=O)NC(C)CCc2ccccc2)cn1 (stereo not given)
42: Cc1cnc(C)c(Nc2nc(C(N)Cc3ccc(Cl)cc3)cs2)n1 (stereo not given)
43: COc1ccc(CC(N)c2csc(Nc3cc(NCc4ccco4)ncn3)n2)cc1 (stereo not given)
44: O=C(NCCc1csc(-c2ccccc2)n1)c1c(F)cccc1Cl
45: O=C(COC(=O)c1ccc(O)cc1)NC1CCCCCCC1
46: CCOc1ccc(C(O)c2nccn2Cc2ccccc2)cc1 (stereo not given)
47: COc1ccc(CC(N)c2csc(Nc3ncccn3)n2)cc1 (stereo not given)
Screen / compound no.	41	42	43	44	45	46	47
TDP1 cell CPT	24%	8.2µM*	u	2%	-14%	-18%	4.6µM*
TDP1 cell noCPT	20%	18µM*	13µM*	u	u	-25%	6.5µM*
miR-21 FLuc	0%	x	x	-2%	x	-9%	x
TDP1 inh	2%	x	x	-2%	x	2%	x
uPA generation	2%	x	x	1%	x	-3%	x
